This is a sample that favours compounds with a hit; in the whole collection about 1.2% have one here.
miR122 inh – blocks miR-122 activity in Huh7 sensor cells | Huh7 miR-122 Renilla luciferase sensor, 48 h; neutral wells = 0, positive control = 100 | activation (reporter increase), % at 12.5 µM | 340,000 tested, 0.3% active;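 active = mean replicate activation score at least 90 and every replicate individually at or above 90; inconclusive = only one of the two criteria met; inactive = neither criterion met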;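 also: higher luciferase means less miR-122 activity so hits act as miR-122 inhibitors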
UUG fidelity – modulators of yeast start codon fidelity, primary screen, whole organism, S. cerevisiae, single point, plate reader. S. cerevisiae UUG-firefly luciferase reporter, luminescence/redox ratio. activity score, % at 18.7 µM. actives 0.13% (n = 350,000);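 active = replicate mean at a twofold rise or more, about +100% in these data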;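 note: firefly luciferase made from a UUG start codon reports start codon fidelity; reporter light over untreated wells divided by growth signal over untreated wells; some hits fall short of that in this replicate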
Cneo AK release – causes C. neoformans cell lysis. 360,000 tested, 0.2% active. lysis activity, % at 15 µM. adenylate kinase release luminescence, 4 h; normalised: neutral wells 0, clomiphene wells 100. AID 651654;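 active = mean lysis activity across replicates of at least 80%, whatever share of replicates individually reach that level; inactive = mean lysis activity below 80%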
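Test system: log-phase Cryptococcus neoformans yeast cells. Input: 5 × 10^6 yeast cells/mL. Medium: fresh YPD growth medium. Doses: single dose. Incubation: static 4 h at 37 °C with compound, 1 h detection. Measured by: luminescent adenylate kinase detection reagent. Read-out: signal increase indicating cell lysis. Benchmarks: Clomiphene.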
Statin myotox sup – suppression of simvastatin myotoxicity; AID 602340; 330,000 tested, 0.78% active; C2C12 myotubes + simvastatin, ATP luminescence, 48 h; scaled: DMSO 0, geranylgeraniol control 100; rescue of ATP level, % at 7.49 µM;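 active = mean ATP rescue above about 67%, or every replicate alone reaching that limit, limit read from the data, passing the limit was not always enough; inconclusive = no clear call, values can overlap the other calls; inactive = mean under the limit and some replicate under it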;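 also: myotubes were challenged with 10 µM simvastatin during compound exposure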
Hits are given with their value; – = inactive; ? = inconclusive; · = not tested or not shown; ! = not confirmed by another sample.

SMILES	miR122 inh	UUG fidelity	Cneo AK release	Statin myotox sup
Cc1noc(C)c1NC(=O)Nc1cccc2c1O[C@H](CN(C)S(=O)(=O)c1cn(C)cn1)[C@H](C)CN([C@H](C)CO)C2=O	–	–	96.3	–
Cc1noc(C)c1NC(=O)Nc1cccc2c1O[C@H](CN(C)S(=O)(=O)c1ccc(F)cc1)[C@@H](C)CN([C@H](C)CO)C2=O	–	–	–	81.2!
O=S(=O)(NC1CC2CCC1C2)c1ccc2c(c1)OCCO2 (centres undefined)	126.1	–	–	–
COc1ccc(S(=O)(=O)NC2CC3CCC2C3)cc1Cl (centres undefined)	107.6	–	–	–
CC1CCCC(NS(=O)(=O)c2ccc3c(c2)OCCO3)C1C (centres undefined)	?	–	–	–
CCCCNC(=O)C1(C)CCCCCN1Cc1cc2ccccc2o1 (centres undefined)	–	–	–	77.1
CCCCNC(=O)C1(C)CCCCN1Cc1ccc(-c2ccccc2)cc1 (centres undefined)	–	–	–	–
COC(=O)C[C@H]1CC[C@H](NS(=O)(=O)c2ccc(OC)cc2)[C@@H](CO)O1	·	–	–	–
Cc1c(NC(=O)c2ccc([N+](=O)[O-])o2)cccc1-c1nc2ncccc2o1	–	–	–	106.5
COc1ccc(/C=N/NS(=O)(=O)c2ccc(C)cc2)cc1OC(=O)c1ccccc1	–	–	–	–
COc1ccc(/C=N/NS(=O)(=O)c2ccccc2)cc1OC(=O)c1ccc(C)cc1	–	–	–	110.4
Cc1noc(C)c1NC(=O)Nc1ccc2c(c1)C(=O)N([C@@H](C)CO)C[C@H](C)[C@@H](CN(C)CC1CCCCC1)O2	–	·	·	–
O=C(O)CC(NC(=O)COc1ccccc1)c1cccc([N+](=O)[O-])c1 (centres undefined)	–	–	–	·
COc1ccc(CC(=O)NC(CC(=O)O)c2cccc([N+](=O)[O-])c2)cc1 (centres undefined)	–	–	–	121.9
CCC(=O)N1C[C@@H](C)[C@@H](OC)CN(C)C(=O)c2cc(NS(C)(=O)=O)ccc2OC[C@@H]1C	–	–	–	–
O=C(O)COn1c(-c2ccccc2)nc2ccc([N+](=O)[O-])cc21	–	–	–	104.8
Cn1nccc1C(=O)Nn1cnnc1	–	–	–	117.9
Cc1nn(C)c(C)c1NC(=O)c1ccnn1C	–	–	–	–
C=CCOn1c(-n2nc(C)cc2C)nc2ccccc2c1=O	–	–	–	–
Cc1cc(C)n(-c2nc3ccccc3c(=O)n2OCCOc2ccccc2)n1	–	–	–	99.5
COc1ccc(NC(=O)N(C)C[C@@H]2Oc3ccc(NC(=O)CCCCCC(=O)Nc4ccccc4N)cc3CC(=O)N([C@H](C)CO)C[C@H]2C)cc1	–	–	–	–
COc1cccc(S(=O)(=O)N(C)C[C@@H]2Oc3ncc(-c4cccc(F)c4)cc3C(=O)N([C@H](C)CO)C[C@@H]2C)c1	–	–	112.4	–
COc1ccc(-c2cnc3c(c2)C(=O)N([C@H](C)CO)C[C@H](C)[C@H](CN(C)Cc2ccc(F)cc2)O3)cc1	–	–	98.0	–
CNC[C@H]1Oc2ncc(C#CCC(C)C)cc2C(=O)N([C@H](C)CO)C[C@H]1C	–	–	90.3	–
C[C@H]1CN([C@@H](C)CO)C(=O)c2cc(-c3cccc(F)c3)cnc2O[C@H]1CN(C)S(=O)(=O)c1cccc(F)c1	–	–	–	–
SMILES	miR122 inh	UUG fidelity	Cneo AK release	Statin myotox sup
CNC[C@@H]1Oc2ncc(C#CCN(C)C)cc2C(=O)N([C@H](C)CO)C[C@@H]1C	·	–	–	–
C[C@@H]1CN([C@H](C)CO)C(=O)c2cc(-c3cccc(F)c3)cnc2O[C@H]1CN(C)Cc1ccccc1	–	–	116.3	–
COc1ccccc1CNC(=O)C[C@H]1C[C@@H]2c3cc(NC(=O)CN(C)C)ccc3O[C@@H]2[C@H](CO)O1	–	·	–	–
COc1ccc(S(=O)(=O)N(C)C[C@H]2OCCCC[C@H](C)Oc3ccc(NC(=O)NC4CCCCC4)cc3C(=O)N([C@H](C)CO)C[C@H]2C)cc1	–	–	–	·
C[C@@H]1CN([C@@H](C)CO)S(=O)(=O)c2ccc(C#CCC3CCCC3)cc2O[C@H]1CN(C)Cc1cccc(C(=O)O)c1	–	·	–	–
C[C@H]1CCCCO[C@H](CN(C)CC2CCCCC2)[C@@H](C)CN([C@@H](C)CO)C(=O)c2cc(NS(=O)(=O)c3ccc(F)cc3)ccc2O1	–	–	–	–
C[C@H]1CN([C@@H](C)CO)C(=O)c2cc(-c3ccc(F)cc3)cnc2O[C@@H]1CN(C)CC1CCCCC1	–	–	90.0	–
C[C@@H]1CN([C@@H](C)CO)C(=O)c2cc(C3=CCCCC3)cnc2O[C@H]1CN(C)C(=O)Cc1cccnc1	–	–	109.7	–
C[C@H]1CN([C@@H](C)CO)C(=O)c2cc(-c3cncnc3)cnc2O[C@H]1CN(C)C(=O)c1ccccc1F	–	–	90.1	–
CC(C)CC#Cc1cnc2c(c1)C(=O)N([C@@H](C)CO)C[C@@H](C)[C@H](CN(C)Cc1cccc(F)c1)O2	–	–	–	–
C[C@@H]1CN([C@H](C)CO)C(=O)c2cc(-c3cncnc3)cnc2O[C@H]1CN(C)C(=O)c1ccccc1F	–	–	–	–
CC(C)CC#Cc1cnc2c(c1)C(=O)N([C@H](C)CO)C[C@H](C)[C@@H](CN(C)Cc1cccc(F)c1)O2	–	–	87.8	–
Cc1cccc(S(=O)(=O)N[C@H]2CC[C@H](CCNS(=O)(=O)c3ccccc3F)O[C@H]2CO)c1	·	–	–	–
COc1cccc(C#Cc2cnc3c(c2)C(=O)N([C@@H](C)CO)C[C@H](C)[C@H](CN(C)C(=O)C2CCOCC2)O3)c1	–	–	–	–
C[C@@H]1CN([C@@H](C)CO)C(=O)c2ccccc2-c2ccccc2CO[C@@H]1CN(C)C(=O)[C@H](C)c1ccccc1	·	·	–	–
CCCC(=O)Nc1ccc2c(c1)OC[C@@H](C)N(CC1CCCC1)C[C@H](C)[C@H](OC)CN(C)C2=O	–	–	–	–
C[C@H]1CN([C@@H](C)CO)C(=O)c2cc(NC(=O)Nc3ccccc3)ccc2O[C@@H]1CN(C)Cc1ccc(C(=O)O)cc1	–	–	–	–
COc1ccc(-c2cnc3c(c2)C(=O)N([C@@H](C)CO)C[C@@H](C)[C@@H](CN(C)S(C)(=O)=O)O3)cc1	–	–	93.5	–
COc1ccc(-c2cnc3c(c2)C(=O)N([C@H](C)CO)C[C@H](C)[C@H](CN(C)S(C)(=O)=O)O3)cc1	–	–	–	–
C[C@H]1CN([C@@H](C)CO)C(=O)c2cc(C#Cc3ccccn3)cnc2O[C@H]1CN(C)Cc1ccncc1	–	–	94.0	–
C[C@H](CO)N1C[C@H](C)[C@H](CN(C)Cc2ccncc2)Oc2ncc(C#Cc3ccccn3)cc2C1=O	–	–	–	–
O=S(=O)(c1cccc2cccnc12)N1CCN(Cc2ccc(OCCO)cc2)CC1	·	–	–	·
O=C(O/N=C1\CCS(=O)(=O)c2sccc21)c1ccc(F)cc1	–	–	–	–
O=C(O/N=C1\CCS(=O)(=O)c2sccc21)c1ccccc1	170.0	–	–	–
